Data taken from US20260109707A1, “HETEROBIFUNCTIONAL COMPOUNDS AND METHODS OF TREATING DISEASE” (Halda Therapeutics OpCo. Inc., priority 2022, published 2026).

Columns and labels:
[1] = tested on: T-Rex 293 cell line SC3 cells having increased expression of androgen receptor protein due to exposure to doxycycline; test: Cellular growth inhibition assay, T-Rex 293 SC3 cells with doxycycline (CellTiter-Glo, 72 hours); settings: T-Rex 293 SC3 cells with increased androgen receptor expression due to doxycycline (10 ng/mL)
Procedure: (§1) The following types of cells were prepared for this experiment: (i) a T-Rex 293 cell line having increased expression of androgen receptor protein due to exposure to doxycycline and (ii) a T-Rex 293 cell line lacking increased expression of androgen receptor protein. Ability of the test compounds to inhibit proliferation of the foregoing cell types was evaluated according to the procedures set forth below.
(§2) The doxycycline-inducible androgen receptor protein expressing cell line was established using the following protocol: T-Rex 293 cells were purchased from Invitrogen (Cat #R71007) and transfected using Lipofectamine 2000 with the wild-type androgen receptor protein sequence cloned into the pcDNA4/TO vector. Transfected cells were selected using 400 μg/mL Zeocin (Invitrogen Cat #R25001). […] Clones were analyzed for expression of androgen receptor protein in the presence and absence of 10 ng/mL doxycycline (Sigma Cat #D9891), and a single doxycycline-inducible clone (hereinafter “SC3”) was selected for use in downstream assays. […]
(§3) At the end of the treatment duration, cell viability was quantified with CellTiter-Glo 2.0 reagent (Promega Cat #G9243). […] Following incubation, the plates were spun at 3000×g for 30 seconds, then sealed with an optical adhesive cover, and luminescence readings were measured with an EnVision Plate Reader.
(§4) Data was normalized using zero luminescence for baseline. […]

VCaP cells = test: Cellular growth inhibition assay for VCaP cells (CellTiter-Glo, 72 hours)
Procedure: VCaP cells were purchased from American Type Cell Culture (ATCC Cat #CRL2876) and then seeded on poly-D-lysine coated, black clear-bottom 384-well plates at 5000/well in 25 μL Dulbecco's Modified Eagle Medium (DMEM) supplemented with 10% w/w Fetal bovine serum (FBS) and 1% w/w Pen-Strep. Pen-Strep is a commercially available mixture of penicillin G and streptomycin, which is used in mammalian cell culture media to prevent bacterial contamination. Dulbecco's Modified Eagle Medium (DMEM) supplemented with 10% w/w fetal bovine serum (FBS) and 1% w/w Pen-Strep is herein referred to as Treatment Medium. Following seeding of cells in the plates, the plates were spun at 300×g for 30 seconds, then equilibrated to room temperature for 30 minutes, and then deposited in a humidified tissue culture incubator maintained at 37° C. with 5% C0-2. […]
as §3, §4

[2] = tested on: T-Rex 293 cell line SC3 cells lacking increased expression of androgen receptor protein; test: Cellular growth inhibition assay, T-Rex 293 SC3 cells without doxycycline (CellTiter-Glo, 72 hours); settings: T-Rex 293 cell line SC3 cells not exposed to doxycycline (lacking increased androgen receptor expression)
Procedure: as §1, §2, §3, §4

BRD4-BD2 = BRD4-BD2 (Homo sapiens, UniProt O60885); test: bromoKdELECT assay for binding affinity to BRD4-BD2; settings: binding to BRD4-BD2, Table 5
Procedure: (§5) Compounds were tested using a bromoKdELECT assay. T7 phage strains displaying bromodomains were grown in parallel in 24-well blocks in an E. coli host derived from the BL21 strain. E. coli were grown to log-phase and infected with T7 phage from a frozen stock (multiplicity of infection=0.4) and incubated with shaking at 32° C. until lysis (90-150 minutes). The lysates were centrifuged (5,000×g) and filtered (0.2 m) to remove cell debris. Streptavidin-coated magnetic beads were treated with biotinylated small molecule or acetylated peptide ligands for 30 minutes at room temperature to generate affinity resins for bromodomain assays. The liganded beads were blocked with excess biotin and washed with blocking buffer (SeaBlock (Pierce), 1% BSA, 0.05% Tween 20, 1 mM DTT) to remove unbound ligand and to reduce nonspecific phage binding. Binding reactions were assembled by combining bromodomains, liganded affinity beads, and test compounds in 1× binding buffer (17% SeaBlock, 0.33×PBS, 0.04% Tween 20, 0.02% BSA, 0.004% Sodium azide, 7.4 mM DTT). Test compounds were prepared as 1000× stocks in 100% DMSO. Kds were determined using an 11-point 3-fold compound dilution series with one DMSO control point. All compounds for Kd measurements are distributed by acoustic transfer (non-contact dispensing) in 100% DMSO. […] The bromodomain concentration in the eluates was measured by qPCR.

BRD4-BD1 = BRD4-BD1 (Homo sapiens, UniProt O60885); test: bromoKdELECT assay for binding affinity to BRD4-BD1; settings: binding to BRD4-BD1, Table 4
Procedure: as §5, with “μm)” for “m)”

T47D cells = test: Cellular growth inhibition assay for T47D cells (CellTiter-Glo, 72 hours); settings: 72 hours treatment
Procedure: T47D cells were purchased from American Type Cell Culture (ATCC Cat #HTB-133) and then seeded on poly-D-lysine coated, black clear-bottom 384-well plates at 3000/well in 25 μL Dulbecco's Modified Eagle Medium (DMEM) supplemented with 10% w/w Fetal bovine serum (FBS), 0.2 units/mL recombinant human insulin (Gibco Cat #12585014), and 1% w/w Pen-Strep. Pen-Strep is a commercially available mixture of penicillin G and streptomycin, which is used in mammalian cell culture media to prevent bacterial contamination. Dulbecco's Modified Eagle Medium (DMEM) supplemented with 10% w/w fetal bovine serum (FBS), 0.2 units/mL recombinant human insulin, and 1% w/w Pen-Strep is herein referred to as Treatment Medium. Following seeding of cells in the plates, the plates were spun at 300×g for 30 seconds, then equilibrated to room temperature for 30 minutes, and then deposited in a humidified tissue culture incubator maintained at 37° C. with 5% CO2. […]
as §3, with “Reader (Perkin Elmer).” for “Reader.”
as §4

Cc1sc2c(c1C)C(c1ccc(OCCOC3CCN(c4ccc(C(=O)N[C@H]5CC[C@H](Oc6ccc(C#N)c(Cl)c6)CC5)nn4)CC3)cc1)=N[C@@H](CC(=O)NC(C)(C)C)c1nnc(C)n1-2
50 to 500 nM: Kd (BRD4-BD2) | Kd (BRD4-BD1)
< 500 nM: GI50 [1] | GI50 (VCaP cells) | GI50 [2] | GI50 (T47D cells)
